In PubChem BioAssay AID485364 (National Center for Advancing Translational Sciences (NCATS), 2010) one finds Potency data, which are given here for 80 compounds.

The list shows a part of the results, in another mix than the full data. Active and inactive are the calls of the source. Calls come from the whole dose curve; as a rule, active = well fitted inhibition curve with a large enough effect; inconclusive = small, poorly fitted or top-dose-only effect; inactive = no such curve, though single readings can be large or run the other way. A call without a number means that no potency is given here.
Potency is the fitted concentration of half-maximal effect.

The target of this experiment is Schistosoma mansoni thioredoxin glutathione reductase (TGR) (UniProt Q962Y6). The experiment is described as follows: qHTS Assay for the Inhibitors of Schistosoma Mansoni Peroxiredoxins. Note: nearly all actives have a fitted effect of over 60% in size. Particulars: purified TGR, DTNB reduction, TNB absorbance 405 nm; series mostly up to 114 µM. The source says:
Schistosomiasis is a major neglected tropical disease that currently affects over 200 million. It is caused by different species of flatworms, such as Schistosoma mansoni. Over the last century, drugs to treat the disease have evolved from potassium antimonyl tartrate, artemisinin, oxamniquine, to praziquantel, with praziquantel remaining the universally-used single drug of choice over the past three decades. However, transmission rates have changed little with praziquantel, and there is evidence for the development of drug resistant parasites. Because there is currently no suitable alternative therapy available, there is an urgent need to identify new targets and drugs for schistosomiasis treatment. Thioredoxin glutathione reductase (TGR), one uniquely positioned S. mansoni enzyme, has been identified as a major component of the worms' distinct and compressed antioxidant "firewall". TGR is a multifunctional enzyme that catalyzes the interconversion between reduced and oxidized forms of both glutathione (GSH) and thioredoxins, thus making it an attractive new antiparasitic target. Recently, a quantitative high-throughput screen of the NIH Molecular Libraries Small Molecule Repository (MLSMR, ~71K at the time of the screen in 2007) was performed using an assay that targeted both TGR and peroxiredoxin2 (Prx2, an H2O2-reducing enzymatic component of the S. mansoni redox "firewall") by following the decrease of NADPH fluorescence. […] Additional mechanistic link between exogenous NO donation and parasitic injury for the oxadiazole-2-oxide class of compounds was also expanded and better defined. Although the screen addressed both TGR and Prx2, the assay required post-screen target deconvolution for further characterization of the actives. In addition, the fluorescence assay was also subject to fluorescence interference from compound library members. We have developed a 1536-well-based kinetic HTS assay to address TGR alone. The assay followed the reduction of 5, 5'-dithiobis (2-nitrobenzoic acid) (DTNB) (Ellman's reagent) by NADPH and measured the increase in absorbance at 412 nm of the reaction product, TNB. […] This assay format can be used to screen the current MLSMR collection (with >300K compounds available) to find novel TGR inhibitors. Furoxan is a good choice to serve as a positive control in the primary HTS assay.
Three microliters of reagents (100 uM NADPH and 20 nM TGR or 100 uM NADPH as no-enzyme control) were dispensed into 1,536-well black clear-bottomed plates. Compounds (23 nL) were transferred via Kalypsys pin tool equipped with 1536-pin array (10 nL slotted pins, V&P Scientific, San Diego, CA). The plates were then be incubated for 15 min at room temperature, and 1 uL aliquot of 500 uM NADPH were added, immediately followed by a 1 uL aliquot of 15 mM DTNB to start the reaction. The plate was transferred to a ViewLux high-throughput CCD imager (Perkin-Elmer, Wellesley, MA) where kinetic measurements of the TNB absorbance were acquired using a 405 excitation filter. Throughout the screen, reagent bottles and all liquid lines were made light-tight to minimize reagent degradation. All screening operations were performed on a fully integrated robotic system (Kalypsys, San Diego, CA) containing one RX-130 and two RX-90 anthropomorphic robotic arms (Staubli, Duncan, SC). Library plates were screened starting from the lowest and proceeding to the highest concentration, and a "double-dipping" step of the highest concentration was required to access higher concentrations of compounds. Vehicle-only plates, with DMSO being pin-transferred to the entire column 5-48 compound area, were inserted uniformly at the beginning and the end of each library in order to monitor for and record any shifts in the background, which can be affected by reagent dispensers or loss in enzyme activity overtime. […]
For orientation: Quantitative high-throughput screening tests each substance at several concentrations.
Consider `CN1CCCCC1COC(=O)C1(O)c2ccccc2CCc2ccccc21` (stereo not given), for which the Potency result is “inactive”.

For the compound `COc1ccccc1OP(C)(=O)Nc1c(C)cccc1C` (stereo not given), the Potency result was “inactive”.

Consider `CP(=O)(Nc1ccc(SC(F)(F)F)cc1)Oc1ccccc1` (stereo not given), for which the Potency result is “inactive”.

Consider `CCCOc1ccc(NP(C)(=O)Oc2ccc(Cl)cc2)cc1` (stereo not given), for which the Potency entry is “inactive”.

As to `O=[N+]([O-])c1cc([N+](=O)[O-])c(Nc2nnnn2CCO)c([N+](=O)[O-])c1`, the Potency result was “inactive”.

`CC1=C2N=C(C=C3N=C(C(C)=C4[N-][C@@](C)([C@@H]5N=C1[C@](C)(CCC(=O)NC[C@@H](C)OP(=O)([O-])O[C@H]1[C@@H](O)[C@@H](n6cnc7cc(C)c(C)cc76)O[C@@H]1CO)[C@H]5CC(N)=O)[C@@](C)(CC(N)=O)[C@@H]4CCC(N)=O)[C@@](C)(CC(N)=O)[C@@H]3CCC(N)=O)C(C)(C)[C@@H]2CCC(N)=O.[C-]#N.[Co+3]`: the Potency entry is “inactive”.

With `Cc1nc2ccc3ccccc3c2s1.O=[N+]([O-])c1cc([N+](=O)[O-])c(O)c([N+](=O)[O-])c1`, the Potency entry was “inactive”.

On to `CP(=O)(Nc1cccc(Br)c1)Oc1ccccc1` (stereo not given), for which the Potency result was “inactive”.

Turning to `Cc1cc(C)cc(OP(C)(=O)Nc2ccccn2)c1` (stereo not given), the Potency result is “inactive”.

As to `Cc1ccc(C)c(NP(C)(=O)Oc2ccccc2)c1` (stereo not given), the Potency result was “inactive”.

As for `COc1ccccc1OP(C)(=O)Nc1cccc(Br)c1` (stereo not given), the Potency entry is “inactive”.

For the compound `Cc1cc(C)cc(OP(C)(=O)Nc2ccc(C)cc2C)c1` (stereo not given), the Potency entry is “inactive”.

Consider `CCOC(=O)c1ccc(NP(C)(=O)Oc2cc(C)cc(C)c2)cc1` (stereo not given), for which the Potency result is “inactive”.

As to `CC1=NCCc2c1[nH]c1ccccc21.O=[N+]([O-])c1cc([N+](=O)[O-])c(O)c([N+](=O)[O-])c1`, the Potency entry is “inactive”.

For `CCOC(=O)c1ccc(NP(C)(=O)Oc2ccccc2)cc1` (stereo not given), the Potency result is “inactive”.

With `Cc1ccc(NP(C)(=O)Oc2ccccc2)c(C)c1` (stereo not given), the Potency entry was “inactive”.

As to `COc1ccccc1OP(C)(=O)Nc1ccc(C)cc1` (stereo not given), the Potency entry was “inactive”.

For `COc1ccc(OP(C)(=O)Nc2cccc(F)c2)cc1` (stereo not given), the Potency result is “inactive”.

As to `COc1ccccc1OP(C)(=O)Nc1cc(Cl)ccc1C` (stereo not given), the Potency entry is “inactive”.

Take `Cc1cc(C)cc(OP(C)(N)=O)c1` (stereo not given): the Potency result was “inactive”.

As for `O=[N+]([O-])c1cc([N+](=O)[O-])c(Nc2cccnc2)c([N+](=O)[O-])c1`, the Potency is active: 35.5 µM.

Take `Cc1cccc(C)c1OP(C)(N)=O` (stereo not given): the Potency result is “inactive”.

For `CC(C)(C)c1ccc(OP(C)(=O)Nc2ccc(SC(F)(F)F)cc2)cc1` (stereo not given), the Potency entry was “inactive”.

For the compound `O=[N+]([O-])c1ccc2c(c1)C=Nc1ccccc1O2`, the Potency result is “inactive”.

Turning to `CCN(CC)CCCOC(=O)C(O)(c1ccccc1)c1ccccc1`, the Potency result is “inactive”.

Consider `CCOP(C)(=S)SCC(=O)NC(C)C(=O)O` (stereo not given), for which the Potency result was “inactive”.

On to `CCOC(=O)c1ccc(NP(C)(=O)Oc2ccc(OC)cc2)cc1` (stereo not given), for which the Potency result is “inactive”.

Regarding `CP(=O)(Nc1ccccn1)Oc1ccc(Cl)cc1` (stereo not given), the Potency entry is “inactive”.

For `CP(=O)(Oc1ccccc1)OC(c1ccccc1)C(F)(F)F` (stereo not given), the Potency result is “inactive”.

Turning to `CP(=O)(Nc1ccc(SC(F)(F)F)cc1)Oc1ccc(Cl)cc1` (stereo not given), the Potency result was “inactive”.

`Cc1cccc(C)c1OP(C)(=O)Nc1ccc(SC(F)(F)F)cc1` (stereo not given): the Potency entry was “inactive”.

As for `Cc1cc(C)cc(OP(C)(=O)Nc2ccc(SC(F)(F)F)cc2)c1` (stereo not given), the Potency entry is “inactive”.

On to `CCc1ccc(OP(C)(=O)N2CCN(c3ccc([N+](=O)[O-])cc3)CC2)cc1` (stereo not given), for which the Potency result was “inactive”.

In the case of `CP(=O)(NC(=O)Nc1ccccc1)Oc1ccccc1` (stereo not given), the Potency result is “inactive”.

Consider `CP(=S)(Nn1cnnc1)Oc1ccccc1` (stereo not given), for which the Potency result was “inactive”.

`COc1ccccc1OP(C)(=O)Nc1ccccc1` (stereo not given): the Potency entry was “inactive”.

Regarding `CP(=O)(Nc1ccccc1Br)Oc1ccccc1` (stereo not given), the Potency entry was “inactive”.

On to `CP(=O)(OC12CC3CC(CC(C3)C1)C2)OC12CC3CC(CC(C3)C1)C2`, for which the Potency result is “inactive”.

On to `CCOC(=O)c1ccc(NP(C)(=O)Oc2ccc(Cl)cc2)cc1` (stereo not given), for which the Potency result is “inactive”.

For the compound `CP(=O)(Nc1ccc(Cl)cc1)Oc1ccc(F)cc1` (stereo not given), the Potency result was “inactive”.

Take `CC(C)(C)c1ccc(OP(C)(=O)O)cc1`: the Potency result was “inactive”.

For the compound `COc1ccccc1OP(C)(=O)Nc1ccccc1Br` (stereo not given), the Potency result was “inactive”.

For the compound `CN(C)C(=O)c1c([N+](=O)[O-])cc([N+](=O)[O-])cc1[N+](=O)[O-]`, the Potency result is “inactive”.

As for `COc1ccc(OP(C)(=O)Nc2ccc(Br)cc2)cc1` (stereo not given), the Potency result was “inactive”.

`CCN(CC)CC(O)COC(=O)C(O)(c1ccccc1)C1CCCCC1` (stereo not given): the Potency result is “inactive”.

With `CCc1ccc(OP(C)(=O)Nc2cccnc2)cc1` (stereo not given), the Potency result is “inactive”.

On to `CP(=O)(Oc1ccccc1)N1CCOC1=O` (stereo not given), for which the Potency result was “inactive”.

In the case of `O=C(OCCCN1CCCC1)C(O)(c1ccccc1)C1CCCCC1` (stereo not given), the Potency entry was “inactive”.

Take `COc1ccccc1OP(C)(=O)Nc1c(C)n(C)n(-c2ccccc2)c1=O` (stereo not given): the Potency result was “inactive”.

In the case of `O=[N+]([O-])c1cc([N+](=O)[O-])c(Nc2ccccn2)c([N+](=O)[O-])c1`, the Potency entry is “inactive”.

Consider `Cc1c(NP(C)(=O)Oc2ccc(C(C)C)cc2)c(=O)n(-c2ccccc2)n1C` (stereo not given), for which the Potency entry is “inactive”.

Consider `CCc1ccc(OP(C)(=O)O)cc1`, for which the Potency result was “inactive”.

Consider `COc1ccccc1OP(C)(=O)Nc1ccc(C)cc1C` (stereo not given), for which the Potency result was “inactive”.

Turning to `CP(=O)(Nc1ccccn1)Oc1ccccc1` (stereo not given), the Potency result was “inactive”.

`COc1ccccc1OP(C)(=O)Nc1ccc(Br)cc1` (stereo not given): the Potency result is “inactive”.

On to `CN(C)CCOC(=O)C(O)(c1ccccc1)C1CCCC1` (stereo not given), for which the Potency result was “inactive”.

For the compound `COc1ccc(OP(C)(=O)Nc2ccccn2)cc1` (stereo not given), the Potency entry was “inactive”.

Take `Cc1nc2ccc3ccccc3c2o1.O=[N+]([O-])c1cc([N+](=O)[O-])c(O)c([N+](=O)[O-])c1`: the Potency result is “inactive”.

With `CP(=O)(OCCOc1ccccc1)OCCOc1ccccc1`, the Potency result is “inactive”.

Consider `CP(=O)(Nc1ccc(Cl)cc1Cl)Oc1ccccc1` (stereo not given), for which the Potency entry is “inactive”.

For the compound `Cc1cc(C)cc(OP(C)(=O)Nc2cccc(C(F)(F)F)c2)c1` (stereo not given), the Potency result is “inactive”.

Regarding `COc1ccc(OP(C)(=O)Nc2ccccc2Br)cc1` (stereo not given), the Potency result is “inactive”.

As for `COc1ccccc1OP(C)(=O)Nc1ccc(C)c(C)c1` (stereo not given), the Potency result was “inactive”.

On to `CCN(CC)CCCOC(=O)C(O)(c1ccccc1)C1CCCCC1` (stereo not given), for which the Potency result was “inactive”.

`CCCCCOc1ccc(NP(C)(=O)Oc2ccc(Cl)cc2Cl)cc1` (stereo not given): the Potency entry is “inactive”.

Take `CP(=O)(Nc1ccccc1)Oc1ccc(F)cc1` (stereo not given): the Potency entry is “inactive”.

For the compound `COc1ccc(OP(C)(=O)Nc2ccc(SC(F)(F)F)cc2)cc1` (stereo not given), the Potency entry is “inactive”.

Take `CCOC(=O)c1ccc(NP(C)(=O)Oc2ccc(F)cc2)cc1` (stereo not given): the Potency entry was “inactive”.

As for `O=C(OCCN1CCN(CCOCc2ccccc2)CC1)C(O)(c1ccccc1)c1ccccc1`, the Potency result is “inactive”.

On to `CC(C)c1ccc(OP(C)(=O)Nc2ccc(SC(F)(F)F)cc2)cc1` (stereo not given), for which the Potency result was “inactive”.

Regarding `CP(=O)(Nc1ccccc1F)Oc1ccccc1` (stereo not given), the Potency result was “inactive”.

For `CP(=O)(Nc1ccc2c(c1)OCCO2)Oc1ccccc1` (stereo not given), the Potency entry was “inactive”.

`Cc1ccccc1NP(C)(=O)Nc1ccccc1C`: the Potency result is “inactive”.

Consider `CP(=O)(Nc1ccc(SC(F)(F)F)cc1)Oc1ccc(F)cc1` (stereo not given), for which the Potency result was “inactive”.

On to `CCOP(C)(=S)SCC(=O)NC(C)(CC)C(=O)O` (stereo not given), for which the Potency result was “inactive”.

On to `Cc1cc(-c2cccc3ccccc23)c(C)cn1.O=[N+]([O-])c1cc([N+](=O)[O-])c(O)c([N+](=O)[O-])c1`, for which the Potency result was “inactive”.

As to `O=[N+]([O-])c1ccc(OP2(=O)COCCO2)cc1` (stereo not given), the Potency result is “inactive”.

For `COc1ccc(OP(C)(=O)Nc2cccc(Br)c2)cc1` (stereo not given), the Potency entry was “inactive”.

As to `COc1ccc(NP(C)(=O)Oc2ccccc2OC)cc1` (stereo not given), the Potency result is “inactive”.

Turning to `CN(C)CCOC(=O)C(O)(c1ccccc1)C1CCCCC1` (stereo not given), the Potency result is “inactive”.
